Source: PubChem
Most compounds without a hit are left out; they make up all but 3.7% or so of the library.
A549 viability: A549 cytotoxicity, counter-screen for Nrf2 inhibitors; Potency, µM (series often up to 46 µM), for inactives: top-dose activity change, negative = cytotoxicity, most hits filed as inhibitors; AID 504648; 390,000 tested, 0.16% active; A549 ARE-Fluc cells, CellTiter-Fluor viability, 18-24 h; further: potency means the concentration at half of the fitted maximal effect; on the % scale 0 is the no-effect control and ±100 the full control effect
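Cytotoxicity counterscreen: CellTiter-Fluor fluorescence was measured in A549 ARE_Fluc cells after 18-24 h of compound exposure in a concentration series. The subsequent BugLite luminescent read reports ARE-luciferase activity.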
p53 reactivation: mutant p53 re-activation in reporter cells. 320,000 tested, 0.063% active. H1299 p53-A138V BP100-luciferase reporter, luminescence, 24 h. Potency, µM (highest dose often 92.2 µM), without a hit: top-dose activity change, positive = activation, actives largely listed as activators; further: potency means the concentration at half of the fitted maximal effect; % of control where 0% means no effect; nearly all actives have a fitted effect of over 45% in size
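p53-null H1299 cells stably carrying temperature-sensitive p53-A138V and a BP100-luciferase reporter were pinned with compounds (4-point, 1:5 series) and held 24 hrs at 37 deg C. Luminescence was read 10 min after detection reagent.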
Nrf2 block: blocks Nrf2 signaling | A549 ARE-Fluc reporter, luciferase luminescence, 18-24 h | Potency, µM (highest dose often 46 µM), without a hit: at the highest dose activity change, negative = inhibition, usual class: inhibitors | 360,000 tested, 2.1% active | AID 504444; further: potency means the concentration at half of the fitted maximal effect; on the % scale 0 is the no-effect control and ±100 the full control effect; nearly all actives have a fitted effect of over 60% in size
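A549 ARE_Fluc cells (5000/well, 5% FBS OPTI-MEM) pre-incubated 2 h, then treated with compounds 18-24 h at 37C/5% CO2 in concentration-response. CellTiter-Fluor viability read first; BugLite luciferase luminescence after 15 min at room temperature gives Nrf2 activity.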
miR-21 FLuc: miR-21 reporter, rising signal | HeLa miR-21 FLuc reporter, luciferase, 48 h | Potency, µM (highest dose often 38.3 µM), for inactives: at the top dose reporter change, positive = more light | 340,000 tested, under 10 active | AID 2288; active = well fitted rising curve with a large enough effect; inconclusive = small, poorly fitted or top-dose-only effect; inactive = no such curve, though single readings can be large or run the other way;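 further: % of control where 0% means no effect; miR-21 action dims this reporter so a rising signal means less miR-21 action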
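Luminescence from a firefly luciferase reporter carrying a miR-21 binding site downstream, stably expressed under a CMV promoter in HeLa cells that make miR-21 endogenously, reports miRNA modulation after 48 h compound exposure up to approximately 40uM final.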
Nrf2 activator: Nrf2 pathway activation; AID 624171; AREc32 ARE-luciferase reporter (MCF7-derived line), luminescence, 24 h; 410,000 tested, 0.31% active; Potency, µM (doses to about 46.1 µM), without a hit: top-dose activation, most hits filed as activators; further: potency means the concentration at half of the fitted maximal effect; % of control where 0% means no effect; nearly all actives have a fitted effect of over 65% in size
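AREc32 cells carrying an ARE-driven firefly luciferase reporter were seeded at 1000 cells/well in OPTI-MEM with 5% FBS, then exposed to compound for 24 hr at 37 deg C. Luminescence was read with Steady-Glo after 30 min at RT.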
ClpP mod: qHTS Assay for Activators of ClpP. ATP-dependent Clp protease proteolytic subunit (Bacillus subtilis (strain 168)), P80244. purified B. subtilis ClpP, FRET peptide cleavage, 20 min. Potency, µM (titrated, usually from 57.5 µM), without a hit: at the highest dose activity change, negative = active. 340,000 tested, 1.9% active; active means well fitted falling curve with a large enough effect; inconclusive means small, poorly fitted or top-dose-only effect; inactive means no such curve, though single readings can be large or run the other way; further: potency means the concentration at half of the fitted maximal effect; the source files actives as falling curves though it sought activators and does not explain the sign; nearly all actives have a fitted effect of over 65% in size
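Purified B. subtilis ClpP, 10 microg/mL final in Tris/HCl pH8 with KCl, BSA, glycerol and Tween-20, cleaved an Abz/nitrotyrosine-quenched decapeptide. Fluorescence (ex 320, em 430) was read at 0 and 20 min at room temperature. Delta was normalized to 5.8 microM ADEP and DMSO/no-enzyme controls.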
Starred values were filed as active, the others as inactive. Unless noted, the call rests on the fitted dose curve; in most records, active means well fitted curve in the direction sought with a large enough effect; inconclusive means small, poorly fitted or top-dose-only effect, or another doubt; inactive means no such curve, though single readings can be large; an effect the other way counts as inactive or inconclusive.

Start of the data: the first three records, to show the layout:
Cc1c(C#N)c(NC(=O)CCl)n(Cc2cccs2)c1C was read as A549 viability inconclusive, p53 reactivation -11.9%, Nrf2 block 14.6µM*, miR-21 FLuc inconclusive, Nrf2 activator inconclusive and ClpP mod 1.0%.
`Cc1c(C#N)c(NC(=O)CCl)n(Cc2ccc(F)cc2)c1C` gave A549 viability -25.4%, p53 reactivation -12.0%, Nrf2 block 18.4µM*, miR-21 FLuc inconclusive, Nrf2 activator inconclusive and ClpP mod 0.5%.
Screening Cc1ccc(C)c(N2CCN(C(=O)C3CCN(c4nc5ccc(C)cc5[nH]4)CC3)CC2)c1 returned A549 viability inconclusive, miR-21 FLuc 15.2%, Nrf2 activator -0.3% and ClpP mod -2.4%.

This part in full, repeating the preview:
Cc1c(C#N)c(NC(=O)CCl)n(Cc2cccs2)c1C was read as A549 viability inconclusive, p53 reactivation -11.9%, Nrf2 block 14.6µM*, miR-21 FLuc inconclusive, Nrf2 activator inconclusive and ClpP mod 1.0%.
`Cc1c(C#N)c(NC(=O)CCl)n(Cc2ccc(F)cc2)c1C` gave A549 viability -25.4%, p53 reactivation -12.0%, Nrf2 block 18.4µM*, miR-21 FLuc inconclusive, Nrf2 activator inconclusive and ClpP mod 0.5%.
Screening Cc1ccc(C)c(N2CCN(C(=O)C3CCN(c4nc5ccc(C)cc5[nH]4)CC3)CC2)c1 returned A549 viability inconclusive, miR-21 FLuc 15.2%, Nrf2 activator -0.3% and ClpP mod -2.4%.
`COC(=O)c1[nH]c2ccc(C)cc2c1NC(=O)CN1CCN(C(=O)c2ccccc2)CC1` gave A549 viability -4.3%, p53 reactivation -18.9%, Nrf2 block -19.8%, miR-21 FLuc 7.0%, Nrf2 activator -0.3% and ClpP mod 14.1µM*.
COC(=O)c1[nH]c2ccc(C)cc2c1NC(=O)CN1CCN(Cc2ccccc2)CC1 was read as A549 viability -9.1%, p53 reactivation -4.8%, Nrf2 block -7.6%, miR-21 FLuc 16.1%, Nrf2 activator 4.8% and ClpP mod 14.1µM*.
For Cc1ccc(NC(=O)COc2coc(CN3CCN(Cc4ccccc4)CC3)cc2=O)cc1 the results were A549 viability -19.7%, p53 reactivation 1.0%, Nrf2 block inconclusive, Nrf2 activator 2.5% and ClpP mod 28.2µM*.
`CCOC(=O)N1CCN(CC(=O)Nc2c(C(=O)OC)[nH]c3cc(C)ccc23)CC1` gave A549 viability -10.8%, p53 reactivation -5.1%, Nrf2 block -12.7%, miR-21 FLuc -5.2%, Nrf2 activator 6.2% and ClpP mod inconclusive.
Screening COC(=O)c1[nH]c2ccc(C)cc2c1NC(=O)CN1CCN(c2ccccc2)CC1 returned A549 viability -18.6%, p53 reactivation 1.4%, Nrf2 block 18.4µM*, miR-21 FLuc 2.8%, Nrf2 activator -0.3% and ClpP mod 22.4µM*.
Screening COc1ccc(CCNC(=O)c2cnn(-c3ccc(F)cc3)c2C2CCN(C(=O)OC(C)(C)C)CC2)c(OC)c1 returned A549 viability -4.6%, Nrf2 block -26.2%, miR-21 FLuc 17.2%, Nrf2 activator -0.5% and ClpP mod 0.9%.
Screening COc1ccc(-n2c(=O)c3c(c4cc(OC)ccc4n3C)n(C)c2=O)cc1 returned A549 viability 7.4%, Nrf2 block inconclusive, miR-21 FLuc 2.0%, Nrf2 activator -1.2% and ClpP mod -10.9%.
`CN(C)c1cccc(S(=O)(=O)N2CCCN(S(=O)(=O)c3ccc4c(c3)OCCO4)CC2)c1` gave A549 viability 0.6% and Nrf2 block -11.8%.
COc1ccc(-c2noc(-c3ccc(N4CCCCC4C)c([N+](=O)[O-])c3)n2)cc1OC (stereo not given) was read as A549 viability 0.1%, Nrf2 block inconclusive, miR-21 FLuc -13.1%, Nrf2 activator 1.9% and ClpP mod 0.2%.
For CCOC(=O)c1[nH]c2ccc(F)cc2c1NC(=O)CN1CCN(C/C=C/c2ccccc2)CC1 the results were A549 viability inconclusive, p53 reactivation -16.8%, Nrf2 block inconclusive, miR-21 FLuc 22.2%, Nrf2 activator 8.9% and ClpP mod inconclusive.
Screening COC(=O)c1[nH]c2ccccc2c1NC(=O)CN1CCN(C/C=C/c2ccccc2)CC1 returned A549 viability -17.7%, p53 reactivation 7.6%, Nrf2 block inconclusive, miR-21 FLuc 26.9%, Nrf2 activator 8.7% and ClpP mod 22.4µM*.
For COC(=O)c1[nH]c2ccc(C)cc2c1NC(=O)CN1CCC(C)CC1 the results were A549 viability -18.2%, p53 reactivation -5.4%, Nrf2 block inconclusive, miR-21 FLuc -0.2%, Nrf2 activator 0.1% and ClpP mod 28.2µM*.
For O=C(CSc1n[nH]c(-c2ccccc2Cl)n1)N1CCN(c2ccccc2F)CC1 the results were A549 viability 16.7%, miR-21 FLuc -7.5%, Nrf2 activator 1.0% and ClpP mod -0.5%.
Cc1ccc(S(=O)(=O)N(C)C)cc1NC(=O)C(C)N(C)Cc1sccc1C (stereo not given) was read as A549 viability -18.4%, p53 reactivation -1.8%, Nrf2 block 13µM*, miR-21 FLuc 18.7% and Nrf2 activator 0.3%.
Screening Cc1ccc(S(=O)(=O)N(C)C)cc1NC(=O)C(C)NC(C)c1cccs1 (stereo not given) returned A549 viability 9.3%, p53 reactivation -4.6%, Nrf2 block inconclusive, miR-21 FLuc 0.3% and Nrf2 activator 0.3%.
`CC1(O)c2ccccc2C(=O)N1Cc1ccccc1` (stereo not given) gave A549 viability -7.6%, p53 reactivation -4.0%, Nrf2 block -20.3%, miR-21 FLuc -3.9%, Nrf2 activator 0.5% and ClpP mod -1.3%.
`CC1(O)c2ccccc2C(=O)N1CCc1ccccc1F` (stereo not given) gave A549 viability 3.9%, p53 reactivation 2.2%, Nrf2 block inconclusive, miR-21 FLuc -27.2%, Nrf2 activator 7.08µM* and ClpP mod -2.4%.
For Cc1cccc(NC(=O)CN(CC2CCCO2)C(=O)c2cc(S(=O)(=O)N(C)C)ccc2F)c1C (stereo not given) the results were A549 viability -2.9%, p53 reactivation 1.4%, Nrf2 block -10.8% and Nrf2 activator -0.9%.
`Cc1cccc(NC(=O)CN(CC2CCCO2)C(=O)c2ccc(S(C)(=O)=O)cc2)c1C` (stereo not given) gave A549 viability 0.6%, p53 reactivation -1.7%, Nrf2 block -19.3%, Nrf2 activator -0.1% and ClpP mod 25.1µM*.
`COc1ccc2cc(C(C)C(=O)Nc3cccc(S(=O)(=O)N(C)C)c3)ccc2c1` (stereo not given) gave A549 viability -21.4%, p53 reactivation 0.4%, Nrf2 block 16.4µM*, miR-21 FLuc 7.5%, Nrf2 activator 3.5% and ClpP mod -1.6%.
CNC(=O)c1cccc(NC(=O)C(C)c2ccc3cc(OC)ccc3c2)c1 (stereo not given) was read as A549 viability -0.1%, p53 reactivation -7.9%, Nrf2 block -10.6%, miR-21 FLuc 12.1% and Nrf2 activator 4.6%.
